SMILES strings stand for the structures. Calls of active or inactive are those of the source. The calls are words filed in the database; no cut-off is given here.

One assay has as its target T1, Hepatocyte nuclear factor 4-alpha (Homo sapiens) (UniProt P41235).
T1 sequence (whole entry): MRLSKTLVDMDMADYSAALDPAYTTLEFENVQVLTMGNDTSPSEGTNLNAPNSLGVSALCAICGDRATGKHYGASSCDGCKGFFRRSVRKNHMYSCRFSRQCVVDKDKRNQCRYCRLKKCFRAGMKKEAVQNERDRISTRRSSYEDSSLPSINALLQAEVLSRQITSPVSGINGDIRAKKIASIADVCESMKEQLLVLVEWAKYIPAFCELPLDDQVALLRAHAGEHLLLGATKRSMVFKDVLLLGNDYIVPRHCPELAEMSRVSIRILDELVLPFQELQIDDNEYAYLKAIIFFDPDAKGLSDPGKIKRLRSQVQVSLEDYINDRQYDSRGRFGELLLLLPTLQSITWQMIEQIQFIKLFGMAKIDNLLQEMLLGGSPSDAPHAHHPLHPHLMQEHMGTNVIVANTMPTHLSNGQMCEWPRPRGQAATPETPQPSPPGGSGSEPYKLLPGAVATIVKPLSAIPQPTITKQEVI
The assay is described as follows: Agonist activity at human Gal4-HNFalpha-LBD expressed in HEK293T cells transfected with pFR-Luc/pRLSV40 assessed as relative luminescence at 10 uM measured after 14 to 16 hrs by hybrid reporter gene assay. The assay is classed as cell-based. Particulars: time lower 14.0 hrs, time upper […].
As for `O=C(O)c1ccc(C#Cc2ccccc2)cc1O`, the outcome was inactive.

Take `O=C(O)c1cc(C#Cc2ccccc2O)ccc1O`: the outcome was inactive.

Regarding `O=C(O)c1cc(C#Cc2ccc(O)cc2)ccc1O`, the outcome was inactive.

With `Cc1cc(O)c(C(=O)O)cc1C#Cc1ccccc1`, the outcome was inactive.

`O=C(O)c1cc(C#Cc2cccc(O)c2)ccc1O`: the result was inactive.

A further assay concerns the target T1, Hepatocyte nuclear factor 4-alpha (Homo sapiens). Put plainly: Agonist activity at human Gal4-HNFalpha-LBD expressed in HEK293T cells transfected with pFR-Luc/pRLSV40 assessed as relative luminescence at 100 uM measured after 14 to 16 hrs by hybrid reporter gene assay. The assay is classed as cell-based. To be noted: time lower 14.0 hrs, time upper […].
Consider `O=C(O)c1cc(O)cc(-c2ccccc2)c1`, for which the result was inactive.

On to `CC(=O)c1cc(-c2ccccc2)ccc1O`, for which the outcome was inactive.

Regarding `O=C(O)c1c(O)cccc1-c1ccccc1`, the result was inactive.

On to `COc1ccc(-c2ccccc2)cc1C(=O)O`, for which the result was inactive.

For the molecule `O=C(O)c1ccc(O)c(-c2ccccc2)c1`, the result was inactive.

Regarding `O=C(O)c1cc(-c2ccccc2)ccc1Cl`, the outcome was inactive.

As for `O=C(O)c1cc(OCc2ccccc2)ccc1O`, the outcome was inactive.

`O=C(O)c1cc(-c2ccccc2)ccc1CO`: the outcome was inactive.

Values taken from ChEMBL document CHEMBL6177992, “A First-in-Class Hepatocyte Nuclear Factor 4 Agonist” (J Med Chem, 2025).
